The test addresses T1, Leukotriene B4 receptor 2 (Homo sapiens) (UniProt Q9NPC1).
T1 sequence (whole entry): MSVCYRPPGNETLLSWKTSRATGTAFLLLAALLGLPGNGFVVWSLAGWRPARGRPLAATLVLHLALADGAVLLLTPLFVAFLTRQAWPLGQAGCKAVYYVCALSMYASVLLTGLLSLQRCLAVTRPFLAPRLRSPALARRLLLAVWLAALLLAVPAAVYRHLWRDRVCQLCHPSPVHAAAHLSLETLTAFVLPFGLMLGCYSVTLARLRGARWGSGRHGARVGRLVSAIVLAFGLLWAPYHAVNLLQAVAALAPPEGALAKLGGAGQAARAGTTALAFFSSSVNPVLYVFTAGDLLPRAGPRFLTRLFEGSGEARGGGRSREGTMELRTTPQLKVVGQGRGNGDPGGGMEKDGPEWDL
Briefly: Agonist activity at HA-epitope tagged human BLT2 expressed in CHOK1 cells assessed as induction of chemotactic motility incubated for 2 hrs by hematoxylin and eosin staining based optical microscopic method. Type of test: cell-based. The conditions noted are these: CHO-K1.

Activity calls are given as the source filed them. The rule behind the calls is not given here.

`CCCCC(=O)N(Cc1ccc(-c2ccccc2C)cc1)c1ccccc1`: the result was inactive.

(Values after ChEMBL document CHEMBL4622988, “Elucidation of Mechanism for Ligand Efficacy at Leukotriene B4 Receptor 2 (BLT2)” (ACS Med Chem Lett, 2020).)
